Reference: patent US11945806B2, “Stabilization of amyloidogenic immunoglobulin light chains” (The Scripps Research Institute, priority 2019, dated 2024)

Tests used:
ALMC2-derived LC = conditions: 1 at 100 μM, LC 5 μM, PK 100 nM; 3.83×10^−4 s^−1 without 1
WIL-FL C214S = conditions: 1 at 100 μM, LC 10 μM; 6.9×10^−3 without 1

In the case of `CCN(CC)c1ccc2c(C)cc(=O)oc2c1` [Compound 1, 7-diethylamino-4-methylcoumarin], the “proteolysis after 1 h of incubation by PK” value (ALMC2-derived LC) was “no proteolysis was detected”, the “protection from proteolysis by PK” value (5J8 LC) was “protects the 5J8 LC from proteolysis by PK” and the “rate constant of PK proteolysis” value (WIL-FL C214S) was 0.0028 s⁻¹.
